Results published in publication PMC13198257, “An aerosolized dual-action autotaxin inhibitor-PPARγ agonist for the treatment of pulmonary fibrosis” (Cell Reports Medicine, 2026).

System: HepG2
Experiment: Cytotoxicity in HepG2 hepatocytes
Format: cell-based, human

Substance “2-[[2-Ethyl-6-[4-[2-(3-hydroxyazetidin-1-yl)-2-oxoethyl]piperazin-1-yl]-8-methylimidazo[1,2-a]pyridin-3-yl]methylamino]-4-(4-fluorophenyl)thiazole-5-carbonitrile [GLPG1690, reference compound]” has a CC50 of 18.5 µM.
